Laboratory results: patent US11459499B2, “Amidoamine-based gemini surfactant containing ethoxylate units and a method for oil recovery” (King Fahd University of Petroleum and Minerals, priority 2018, dated 2022)

Legend:
[1] = AM-AMPS copolymer, 80° C.
[2] = due to evaporation of organic solvents and water; 20° C./min, nitrogen
[3] = 30° C.
[4] = 10 wt % solution, table title says room temperature; for solubility in DW: deionized water; for solubility in FW: formation water (214 g/L salts); for solubility in SW: sea water (57.7 g/L salts)

Row | Substance | influence of surfactant concentration on polymer viscosity ([1]; high shear rate) | storage modulus and polymer viscosity upon increasing concentration of the surfactant ([1]; low shear rate) | initial loss in weight (TGA) [2] | change in cmc upon enhancing salinity ([3]; DW versus SW) | Amin ([3]; DW) [nm^2] | cmc ([3]; DW) [mol/L] | Γmax × 10^6 ([3]; DW) [mol/m^2] | γcmc ([3]; DW) [mN/m] | πcmc ([3]; DW) [mN/m] | Amin ([3]; SW) [nm^2] | cmc ([3]; SW) [mol/L] | Γmax × 10^6 ([3]; SW) [mol/m^2] | γcmc ([3]; SW) [mN/m] | πcmc ([3]; SW) [mN/m] | solubility in DW [4] | solubility in FW [4] | solubility in SW [4] | foam height in SW versus DW (0.1 wt % surfactant) | initial foam height (surfactant concentration 0.1%, ambient temperature) [mm]
1 | cationic poly(ethylene oxide) gemini surfactant [12-E2-12] | insignificant | reduced | about 25% | decrease | 2.83 | 5.02e-05 | 0.58 | 38.66 | 33.34 | 3.12 | 3.91e-05 | 0.53 | 36.12 | 35.08 | Transparent | Transparent | Transparent | greater in SW than in DW | 90
2 | cationic poly(ethylene oxide) gemini surfactant [12-E1-12] |  |  |  |  |  |  |  |  |  |  |  |  |  |  | Transparent | Severe precipitation | Precipitation |  | 

Where two headings read alike, the source gives them in different places.
